# Experimental data published in PMC7723054.
# This is one part of the list.
# T1: LIN28A (human?, UniProt Q9H9Z2 1-209)
# T1 sequence: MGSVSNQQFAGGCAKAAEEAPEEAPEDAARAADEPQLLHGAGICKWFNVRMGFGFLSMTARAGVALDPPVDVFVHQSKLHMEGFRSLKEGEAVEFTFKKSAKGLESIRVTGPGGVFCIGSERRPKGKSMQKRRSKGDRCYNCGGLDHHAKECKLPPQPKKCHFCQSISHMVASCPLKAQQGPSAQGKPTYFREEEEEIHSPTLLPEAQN
# T2: CIRBP (Homo sapiens, UniProt Q14011 1-172)
# T2 sequence: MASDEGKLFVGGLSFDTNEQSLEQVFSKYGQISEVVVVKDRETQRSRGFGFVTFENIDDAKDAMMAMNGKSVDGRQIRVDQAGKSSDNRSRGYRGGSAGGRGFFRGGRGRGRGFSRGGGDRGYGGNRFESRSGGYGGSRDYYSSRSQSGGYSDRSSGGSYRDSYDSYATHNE
# T3: DHX36 (Homo sapiens, UniProt Q9H2U1 1-1008)
# T3 sequence: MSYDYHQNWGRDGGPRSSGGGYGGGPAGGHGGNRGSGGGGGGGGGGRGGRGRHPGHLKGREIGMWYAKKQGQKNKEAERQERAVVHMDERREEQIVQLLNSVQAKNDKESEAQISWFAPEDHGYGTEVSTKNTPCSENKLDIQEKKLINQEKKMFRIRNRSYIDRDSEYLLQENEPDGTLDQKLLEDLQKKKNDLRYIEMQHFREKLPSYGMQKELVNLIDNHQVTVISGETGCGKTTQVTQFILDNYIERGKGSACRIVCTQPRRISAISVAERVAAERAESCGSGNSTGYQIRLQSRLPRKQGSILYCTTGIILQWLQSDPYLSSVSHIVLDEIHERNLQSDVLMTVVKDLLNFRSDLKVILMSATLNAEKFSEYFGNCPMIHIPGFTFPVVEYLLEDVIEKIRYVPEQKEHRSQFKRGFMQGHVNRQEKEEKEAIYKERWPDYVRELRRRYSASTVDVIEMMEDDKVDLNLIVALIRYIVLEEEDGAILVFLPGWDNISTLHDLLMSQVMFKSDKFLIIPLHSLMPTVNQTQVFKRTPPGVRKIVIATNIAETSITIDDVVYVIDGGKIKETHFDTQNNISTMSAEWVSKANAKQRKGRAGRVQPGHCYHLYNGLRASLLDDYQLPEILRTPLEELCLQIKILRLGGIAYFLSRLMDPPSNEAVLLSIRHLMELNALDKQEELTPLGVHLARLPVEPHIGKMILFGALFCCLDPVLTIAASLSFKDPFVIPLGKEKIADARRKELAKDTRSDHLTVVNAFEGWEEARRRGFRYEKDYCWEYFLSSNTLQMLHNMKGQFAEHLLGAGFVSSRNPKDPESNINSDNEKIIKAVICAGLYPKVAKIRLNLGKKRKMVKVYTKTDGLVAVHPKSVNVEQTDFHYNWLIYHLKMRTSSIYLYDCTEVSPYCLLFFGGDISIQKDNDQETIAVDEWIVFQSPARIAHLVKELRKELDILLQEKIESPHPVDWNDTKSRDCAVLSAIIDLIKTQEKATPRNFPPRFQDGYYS
# B1: hsa-mir-8082 (structured_RNA)
# RNA: GGGAAAGGUUGCCCAGCUAGUACCUCACGGUGUACGAAGUUUCAGCUCUGGGGAGAGAGUCCUCUUUUCAGCGCUGAAGCUUCGUGCAC
# B2: hsa-mir-4460 (structured_RNA)
# RNA: GGGAAGUAUACAGAUGCGUACCUCUUGAGGUGUACGAAGUUUCAGCCCUUCUCCUCUUUGCAGUGAUAAAGGAGGGCUGAAGCUUCGUGCAC
# B3: hsa-mir-3189 (structured_RNA)
# RNA: GGGAAAGGCUUGUCGCUAACACCGUGUAGGUGUACGAAGUUUCAGCUGGGUAGGAAUAUCCUGGAUCCCCUGCUGAAGCUUCGUGCAC
# B4: hsa-mir-2054 (structured_RNA)
# RNA: GGGACGAAUGCUGCAGCCGAGAAUCUACGGUGUACGAAGUUUCAGCUAUUCUCUAUGCUGAAGCUUCGUGCAC
# B5: hsa-mir-186 (structured_RNA)
# RNA: GGGAAAUAUUGUGCGCGCUAACGACAGUGGUGUACGAAGUUUCAGCGGGCUUUCUGGUUUUAUUUUAAGCCCGCUGAAGCUUCGUGCAC
# B6: hsa-mir-3144 (structured_RNA)
# RNA: GGGAAAAUUGGUCAACGUGGUGCCCUGUGGUGUACGAAGUUUCAGCAUAUAGAUAUCAGCUACCUAUAUGCUGAAGCUUCGUGCAC
# B7: hsa-mir-5047 (structured_RNA)
# RNA: GGGAACAUCGAAAGGAACGAGUAGCAUUGGUGUACGAAGUUUCAGCGCAUAAAAACAACUUUUGGGGGACAGGUAUGUUUUCUUGCGCUGAAGCUUCGUGCAC
# B8: hsa-mir-135a-2 (structured_RNA)
# RNA: GGGAAGUGCGACGUUCUUUGGUGUGUUCGGUGUACGAAGUUUCAGCGUGAUAGUAAUAAAGUCUCAUGCUGAAGCUUCGUGCAC
# B9: hsa-mir-4445 (structured_RNA)
# RNA: GGGAAGAAUAUUUAGGCGAUUCCCCUGCGGUGUACGAAGUUUCAGCCGUGCAAGUUUAAGUUUUUGCACGGCUGAAGCUUCGUGCAC
# B10: hsa-mir-3173 (structured_RNA)
# RNA: GGGAAACUGGUUCUGGGAUGGUCAAUUCGGUGUACGAAGUUUCAGCCUUUGUGAUUUUAUGAGAACAAAGGCUGAAGCUUCGUGCAC
# B11: hsa-mir-381 (structured_RNA)
# RNA: GGGAAUAGGCUUCUCCAGGCCCAAGAUAGGUGUACGAAGUUUCAGCUAUAUUCGGUUUAUUGACAUGGAAUAUAGCUGAAGCUUCGUGCAC
# B12: hsa-mir-874 (structured_RNA)
# RNA: GGGAAGAGCUAAGGGUAGAACGUAUCUUGGUGUACGAAGUUUCAGCGUAAGAGAGACUCUCGCUUCCUGCGCUGAAGCUUCGUGCAC
# B13: hsa-mir-95 (structured_RNA)
# RNA: GGGAAGCGUUAAUGGGGCUAUUGCGGGAGGUGUACGAAGUUUCAGCUGAAUUGAAAUGCGUUACAUUCAGCUGAAGCUUCGUGCAC
# B14: hsa-mir-502 (structured_RNA)
# RNA: GGGAAAGUAGUAUGACUGCCUCGCAGCUGGUGUACGAAGUUUCAGCGCUAGUGCUGGCUCAAUGCAAUGCGCUGAAGCUUCGUGCAC
# B15: hsa-mir-302f (structured_RNA)
# RNA: GGGAGGAAGGUUAAAUGACGAUGCUCUUGGUGUACGAAGUUUCAGCAUUUUCACUUAAUGCUGAAGCUUCGUGCAC
# B16: hsa-mir-506 (structured_RNA)
# RNA: GGGACGUUCCGUGAUACACCUUUGAGAAGGUGUACGAAGUUUCAGCCUUAAUAGAUUAAUAUUUGUAAGGCUGAAGCUUCGUGCAC
# B17: hsa-mir-1302-1 (structured_RNA)
# RNA: GGGAGAAGAAUGUAUAGACCAGCGAAACGGUGUACGAAGUUUCAGCCCAUACAAUAUUUGGGCUGAAGCUUCGUGCAC
# B18: hsa-mir-5684 (structured_RNA)
# RNA: GGGAAACAUCGGGACAAGCAAAGAUAAUGGUGUACGAAGUUUCAGCACAGAGUGAGAUGGUCUUGUUUUGUGCUGAAGCUUCGUGCAC
# B19: hsa-mir-6721 (structured_RNA)
# RNA: GGGACGGCUUUUAGGAGUCGUCUGGCUUGGUGUACGAAGUUUCAGCAGUCUCUGAAGAGAGCUGUGGACUGAGCUGAAGCUUCGUGCAC
# B20: hsa-mir-4672 (structured_RNA)
# RNA: GGGAAAUCAGCGACCCAGAGUGUAGCCUGGUGUACGAAGUUUCAGCGUGGCCUUGGACAAGCCUCUUGGUUACGCUGAAGCUUCGUGCAC
# B21: hsa-mir-518a-2 (structured_RNA)
# RNA: GGGAACGAAAUCAUAGGCGUAACACCCGGGUGUACGAAGUUUCAGCUUUCUGUUGUCUAAAAGAAGAGAAAGCUGAAGCUUCGUGCAC
# B22: hsa-mir-302c (structured_RNA)
# RNA: GGGAACGUGGUUUGCUCCCAGGUCUACGGGUGUACGAAGUUUCAGCCCUGCUGUGUGAAACAAAAGUAAGGCUGAAGCUUCGUGCAC
# B23: hsa-mir-4654 (structured_RNA)
# RNA: GGGAACCCAAUAUUGCUUGACGACACGAGGUGUACGAAGUUUCAGCCUGGGGUUGGAAUGUGACCCCAGCUGAAGCUUCGUGCAC
# B24: hsa-mir-8076 (structured_RNA)
# RNA: GGGAAUGGCGCGAAUCCCCGAUACUCAUGGUGUACGAAGUUUCAGCUGUGAGAGCUACUAAGUCUUAUAGCUGAAGCUUCGUGCAC
# B25: hsa-mir-7153 (structured_RNA)
# RNA: GGGACGAAAGUUAGCCAACCGCGUAACAGGUGUACGAAGUUUCAGCUAGGUGGUCGAAGUCAUCCACAGCUGAAGCUUCGUGCAC
# B26: hsa-mir-7856 (structured_RNA)
# RNA: GGGAACUUCACUGAGAGUAAGGUUAAGGGGUGUACGAAGUUUCAGCGAUCCUUUGUUCUGGAUCGCUGAAGCUUCGUGCAC
# Target: T1, LIN28A
# Test: FOREST: bead pull-down of RNA structure library v1, barcode microarray; U1A/LIN28A: 20 mM HEPES pH 7.5, 80 mM KCl, 20 mM NaCl, 10% glycerol, 2 mM DTT, 0.1 ug/uL BSA, 4 C; BG4/CIRBP/DHX36: 10 mM Tris-HCl pH 7.5, 100 mM KCl (or LiCl),; high values mean tight binding
row,Binder,binding signal
1,B1,0.5 z-score
2,B2,0.483 z-score
3,B3,0.462 z-score
4,B4,0.455 z-score
5,B5,0.464 z-score
6,B6,0.497 z-score
7,B7,0.512 z-score
8,B8,0.54 z-score
9,B9,0.523 z-score
10,B10,0.511 z-score
11,B11,0.491 z-score
12,B12,0.475 z-score
13,B13,0.474 z-score
14,B14,0.504 z-score
15,B15,0.479 z-score
16,B16,0.466 z-score
17,B17,0.477 z-score
18,B18,0.521 z-score
19,B19,0.445 z-score
20,B20,0.444 z-score
21,B21,0.476 z-score
22,B22,0.465 z-score
23,B23,0.523 z-score
24,B24,0.486 z-score
25,B25,0.468 z-score
26,B26,0.486 z-score

# Target: T2, CIRBP
# Test: as above
row,Binder,binding signal
1,B1,0.0866 z-score
2,B2,-0.149 z-score
3,B3,0.681 z-score
4,B4,0.489 z-score
5,B5,0.616 z-score
6,B6,0.898 z-score
7,B7,0.488 z-score
8,B8,0.198 z-score
9,B9,0.217 z-score
10,B10,0.397 z-score
11,B11,0.278 z-score
12,B12,1.53 z-score
13,B13,0.824 z-score
14,B14,1.11 z-score
15,B15,1.52 z-score
16,B16,-0.269 z-score
17,B17,-0.283 z-score
18,B18,0.903 z-score
19,B19,-3.27 z-score
20,B20,0.106 z-score
21,B21,0.138 z-score
22,B22,-0.0262 z-score
23,B23,-0.185 z-score
24,B24,-0.312 z-score
25,B25,0.708 z-score
26,B26,0.827 z-score

# Target: T3, DHX36
# Test: as above
row,Binder,binding signal
1,B1,-0.0778 z-score
2,B2,-0.834 z-score
3,B3,0.989 z-score
4,B4,-0.863 z-score
5,B5,-0.647 z-score
6,B6,-0.501 z-score
7,B7,1.87 z-score
8,B8,-0.421 z-score
9,B9,-0.444 z-score
10,B10,-0.285 z-score
11,B11,0.314 z-score
12,B12,0.168 z-score
13,B13,-0.272 z-score
14,B14,0.332 z-score
15,B15,1.6 z-score
16,B16,-0.844 z-score
17,B17,-0.713 z-score
18,B18,0.269 z-score
19,B19,-0.51 z-score
20,B20,-0.526 z-score
21,B21,0.353 z-score
22,B22,-0.951 z-score
23,B23,-0.138 z-score
24,B24,-0.996 z-score
25,B25,0.367 z-score
26,B26,0.348 z-score
